Test results reported in patent US9051418B2, “Glucose-PEG conjugates for reducing glucose transport into a cell” (Agency for Science, Technology and Research, priority 2008, dated 2015).

Experiments:
[1] = system: MCF-7 cells; assay: MTT cell viability assay, MCF-7 cells cultured 7 days with modified glucose; details: for cell viability: control without treatment = 100%
Method: MCF-7 cells were seeded onto 96-well plates at least 24 h prior to the experiment. […] MTT assay was performed to assess the cell viability. […] Cell viability was normalized with that of the control cells. […] The cells were treated as described in FIG. 3, followed by the MTT assay. […] MTT assay was carried out to monitor the viability of the cells. Values obtained for the cells without any treatments were kept as 100%. Different cancer cell lines, MCF-7 (breast cancer), H1299 (lung cancer), HepG2 (liver cancer), DU145 (prostate cancer), Caco2 (colon cancer) and AGS (gastric cancer) were obtained from American Type Culture Collection (ATCC). Normal breast epithelial cell line (MCF-10A) was used for comparison. The cells were maintained in the growth medium as described by ATCC. Approximately 10,000 cells were seeded onto a 96-well plate. Modified glucose compounds were added to the cells after 24 h of seeding. The cells were further cultured in the presence of the modified glucose compounds for up to 7 days. The medium was changed everyday along with the specified concentration of modified glucose. […] MTT assay was performed using the TACS™ MTT cell proliferation assay kit (Trevigen Inc, Md., USA). Briefly, after treatment of cells, 10 μl of MTT reagent was added and incubated at 37° C. for 4 h. The cells were lysed using detergent for 4 h at room temperature. The absorbance was measured in a standard plate reader at 570 nm.

[2] = system: MCF-10A; details: 200 μM, MTT
Method: MTT assay was carried out to monitor the viability of the cells. Values obtained for the cells without any treatments were kept as 100%.
Different cancer cell lines, MCF-7 (breast cancer), H1299 (lung cancer), HepG2 (liver cancer), DU145 (prostate cancer), Caco2 (colon cancer) and AGS (gastric cancer) were obtained from American Type Culture Collection (ATCC). Normal breast epithelial cell line (MCF-10A) was used for comparison. The cells were maintained in the growth medium as described by ATCC. Approximately 10,000 cells were seeded onto a 96-well plate. Modified glucose compounds were added to the cells after 24 h of seeding. The cells were further cultured in the presence of the modified glucose compounds for up to 7 days. The medium was changed everyday along with the specified concentration of modified glucose.
MTT assay was performed using the TACS™ MTT cell proliferation assay kit (Trevigen Inc, Md., USA). Briefly, after treatment of cells, 10 μl of MTT reagent was added and incubated at 37° C. for 4 h. The cells were lysed using detergent for 4 h at room temperature. The absorbance was measured in a standard plate reader at 570 nm.

| Substance | cell viability ([1]; MCF-7, 200 μM) [%] | cell viability ([1]; MCF-7, 400 μM) [%] | reduction in cell viability ([1]; MCF-7, 200 μM, MTT, relative to untreated control) [%] | reduction in viability of normal breast cells [2] [%] |
| --- | --- | --- | --- | --- |
| glucose-PEG-PEG [GPP] | 57 | 42 | – | – |
| glucose-conjugated branched PEG [GBrP] | – | – | > 90 | 29 |
